Assay: Inhibition of human BCL-2 overexpressed in mouse FDC-P1 cells assessed as cell viability after 24 hrs by Cell Titer Glo assay

CC1(C)CCC(c2ccc(Cl)cc2)=C(CN2CCN(c3ccc(C(=O)NS(=O)(=O)c4ccc(N[C@H](CCN5CCOCC5)CSc5ccccc5)c(S(=O)(=O)C(F)(F)F)c4)cc3)CC2)C1 [ABT-263]
IC50: < 15 nM
